{"source": "ChEMBL document CHEMBL1154493", "about": "“Oxidative inactivation of protein tyrosine phosphatase 1B by organic hydroperoxides” (Bioorg Med Chem Lett, 2008)", "key": {"[1]": {"target": "T1, Tyrosine-protein phosphatase non-receptor type 1 (Homo sapiens) (UniProt P18031)", "T1 sequence (whole entry)": "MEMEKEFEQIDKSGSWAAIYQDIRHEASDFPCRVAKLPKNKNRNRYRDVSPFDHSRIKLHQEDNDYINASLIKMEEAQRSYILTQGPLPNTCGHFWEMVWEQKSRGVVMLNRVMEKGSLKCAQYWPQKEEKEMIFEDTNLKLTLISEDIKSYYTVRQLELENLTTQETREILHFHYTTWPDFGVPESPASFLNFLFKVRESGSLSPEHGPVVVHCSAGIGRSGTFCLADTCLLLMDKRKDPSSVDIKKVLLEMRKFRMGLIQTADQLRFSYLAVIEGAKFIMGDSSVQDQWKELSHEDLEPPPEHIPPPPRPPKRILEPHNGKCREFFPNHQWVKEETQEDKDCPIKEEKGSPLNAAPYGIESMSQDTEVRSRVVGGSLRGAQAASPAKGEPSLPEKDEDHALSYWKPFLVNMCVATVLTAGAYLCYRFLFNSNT", "assay": "Inactivation of PTP1B assessed as return of enzyme activity at 50 uM after 1 hr in presence of dithiothreitol"}, "[2]": {"target": "T1, Tyrosine-protein phosphatase non-receptor type 1 (Homo sapiens)", "assay": "Inhibition of PTP1B assessed as inhibition rate constant"}}}
{"smiles": "OOC1CCCO1", "note": "(configuration not stated)", "values": [{"measurement": "Activity", "setting": "[1]", "result": 54, "unit": "%"}, {"measurement": "Activity", "setting": "[2]", "result": 20.3, "unit": "M⁻¹ s⁻¹"}]}
